Results on 2 molecules are retold here after patent publication US11679084B2, “Method and compositions for rendering opioids safe” (dated 2023).

Data set [1] is described as follows: Oxidation by sodium perborate with TAED in water. The conditions noted are these: TAED and sodium perborate (1:4 molar ratio), room temperature.
The nature of data set [2]: Destruction of oxycodone by excess sodium perborate in water. As to conditions: room temperature aqueous solution of excess sodium perborate.

Consider `COc1ccc2c3c1O[C@H]1C(=O)CC[C@@]4(O)[C@@H](C2)N(C)CC[C@]314`, for which the e-folding time entry in data set [1] is listed as “about one”.
Regarding `COc1ccc2c3c1O[C@H]1C(=O)CC[C@@]4(O)[C@@H](C2)N(C)CC[C@]314.Cl`, the “e-folding time of destruction” value in data set [2] is “about 20 minutes”.
